Reference: ChEMBL document CHEMBL3784928, “Development and Characterization of Novel and Selective Inhibitors of Cytochrome P450 CYP26A1, the Human Liver Retinoic Acid Hydroxylase” (J Med Chem, 2016)
Calls of active or inactive are those of the source. No cut-off for these calls is given here.

Columns and labels:
[1] = Activation of human RARbeta at 1 uM by luciferase reporter gene assay
Homo sapiens = species on record: Homo sapiens; assay: Selectivity ratio of IC50 for microsomal fraction of human CYP26B1 to IC50 for microsomal fraction of human CYP26A1

Row | SMILES | Activity [1] | Ratio IC50 (Homo sapiens)
1 | CC1(C)CCC(C)(C)c2cc(C3(c4ccc(/C=C/C(=O)O)cc4)OCCO3)ccc21 | inactive | 
2 | CC1(C)CCC(C)(C)c2cc(C3(c4ccc5cc(C(=O)O)ccc5c4)SCCS3)ccc21 |  | 17
